Values quoted from earlier work as cited in patent US20130177627A1, “Growth inhibitory effects of nanoparticles containing triterpene glycosides or triterpenes” (priority 2011, published 2013).

System: MDA-MB-453 human breast cancer cells
Settings: MDA-MB-453 (Yakes et al., 2002); cited from earlier work

Substance: Herceptin: the antibody to Her2
- sensitivity of cells to Herceptin: relatively resistant
